The nature of the data set: Acidic dissociation constant, pKa of the compound in phosphate/tris/glycine-NaOH containing buffer by UV-vis spectrophotometric analysis.
On to `O=C(/C=N/O)Nc1ccc[n+](Cc2ccc(C[n+]3cccc(NC(=O)/C=N/O)c3)cc2)c1.[Br-].[Br-]`, for which the pKa is 7.95.

`O=C(/C=N\O)Nc1ccc[n+](CCCC[n+]2cccc(NC(=O)/C=N\O)c2)c1.[Br-].[Br-]` had a pKa of 8.16.

`O=C(/C=N/O)Nc1ccc[n+](Cc2ccccc2C[n+]2cccc(NC(=O)/C=N/O)c2)c1.[Br-].[Br-]`: the pKa was 8.1.

`O/N=C/c1cc[n+](CCC[n+]2ccc(/C=N/O)cc2)cc1.[Br-].[Br-]` yielded a pKa of 7.8.

In turn, `O=C(/C=N\O)Nc1ccc[n+](CCCCC[n+]2cccc(NC(=O)/C=N\O)c2)c1.[Br-].[Br-]` had a pKa of 8.14.

Take `O=C(/C=N/O)Nc1ccc[n+](CC[n+]2cccc(NC(=O)/C=N/O)c2)c1.[Br-].[Br-]`: the pKa is 8.14.

`O=C(/C=N\O)Nc1ccc[n+](CCC[n+]2cccc(NC(=O)/C=N\O)c2)c1.[Br-].[Br-]` had a pKa of 8.17. This pKa and that of the compound before are within 0.2 log units of each other.

`O=C(/C=N\O)Nc1ccc[n+](CCCCCC[n+]2cccc(NC(=O)/C=N\O)c2)c1.[Br-].[Br-]` had a pKa of 8.25. This pKa and that of the compound before are within 0.2 log units of each other.

`O=C(/C=N/O)Nc1ccc[n+](Cc2cccc(C[n+]3cccc(NC(=O)/C=N/O)c3)c2)c1.[Br-].[Br-]` displayed a pKa of 8.23.

In the case of `O=C(/C=N\O)Nc1ccc[n+](CCCCCCC[n+]2cccc(NC(=O)/C=N\O)c2)c1.[Br-].[Br-]`, the pKa was found to be 8.22. This pKa and that of the compound before are within 0.2 log units of each other.

These data come from ChEMBL document CHEMBL3259811, “Synthesis and in vitro evaluation of bis-quaternary 2-(hydroxyimino)-N-(pyridin-3-yl)acetamide derivatives as reactivators against sarin and VX inhibited human acetylcholinesterase (hAChE)” (2014).
